In this assay the target is human factor Xa (Homo sapiens, UniProt P00742). Put plainly: Factor Xa assay (chromogenic, substrate S-2765).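 Further: purified enzyme preincubated with inhibitor for 10 min before substrate addition, final reaction volume 100 µl.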 Format: biochemical. The conditions noted are these: inhibition constant for factor Xa; purified enzyme 0.5 nM, substrate S-2765 140 μM, 25° C., pH 7.8; Ki=IC50/{1+(substrate concentration/Km)}; read-out: Ki(FXa).

Protein sequences, listed by entry. Tags and fused reporters are not part of them. Residues count along the entry.
UniProt P00742, 41-179 partner limits assumed: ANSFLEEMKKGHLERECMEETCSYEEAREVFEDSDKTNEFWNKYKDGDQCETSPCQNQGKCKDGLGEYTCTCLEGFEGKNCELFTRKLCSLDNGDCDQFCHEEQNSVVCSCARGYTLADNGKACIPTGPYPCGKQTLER
UniProt P00742, 235-488 limits assumed: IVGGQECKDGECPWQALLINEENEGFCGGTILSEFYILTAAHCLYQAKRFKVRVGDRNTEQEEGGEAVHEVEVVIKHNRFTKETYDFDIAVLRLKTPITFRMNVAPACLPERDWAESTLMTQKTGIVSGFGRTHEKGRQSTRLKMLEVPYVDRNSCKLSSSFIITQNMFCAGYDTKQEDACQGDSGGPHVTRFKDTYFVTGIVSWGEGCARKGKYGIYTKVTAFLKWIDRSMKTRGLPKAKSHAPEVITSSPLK

Take `CC(C)NC1CCN(C(=O)c2cc3ccccc3n2Cc2cc(-c3ccc(Cl)s3)on2)CC1` [Example 34, {1-[5-(5-Chloro-thiophen-2-yl)-isoxazol-3-ylmethyl]-1H-indol-2-yl}-(4-isopropylamino-piperidin-1-yl)-methanone]: the Ki – broadly, a measure of affinity in units of concentration, obtained from inhibition or displacement – is 3000 nM.

Values taken from patent US20090069565A1, “NEW INDOLE DERIVATIVES AS FACTOR XA INHIBITORS” (priority 2001, published 2009).
